In ChEMBL document CHEMBL2010744, “Pyridyl aminothiazoles as potent inhibitors of Chk1 with slow dissociation rates” (Bioorg Med Chem Lett, 2012):

Target: T1, Serine/threonine-protein kinase Chk1 (Homo sapiens, UniProt O14757)
T1 sequence (O14757 whole entry): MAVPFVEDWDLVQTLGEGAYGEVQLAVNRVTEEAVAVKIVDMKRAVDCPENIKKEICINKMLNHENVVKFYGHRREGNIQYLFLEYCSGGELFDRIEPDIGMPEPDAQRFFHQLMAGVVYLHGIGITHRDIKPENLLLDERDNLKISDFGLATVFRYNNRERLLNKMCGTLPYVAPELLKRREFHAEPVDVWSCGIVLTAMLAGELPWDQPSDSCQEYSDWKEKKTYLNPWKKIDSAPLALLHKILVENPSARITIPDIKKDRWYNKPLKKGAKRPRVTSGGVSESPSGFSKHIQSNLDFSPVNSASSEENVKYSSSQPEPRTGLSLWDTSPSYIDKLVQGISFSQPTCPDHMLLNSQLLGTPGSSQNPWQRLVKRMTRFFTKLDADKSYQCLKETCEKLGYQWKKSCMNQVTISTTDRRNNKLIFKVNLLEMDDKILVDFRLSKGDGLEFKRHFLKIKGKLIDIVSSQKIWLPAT
Assay: Competitive inhibition of Chk1 in presence of higher ATP levels

Row | SMILES | IC50 [nM]
1 | NCCNC(=O)c1cncc(-c2cnc(Nc3cc(N4CCOCC4)ccn3)s2)c1 | 0.05
2 | O=C(CN1CCN(c2ccnc(Nc3ncc(-c4cccnc4)s3)c2)CC1)N1CCOCC1 | 47
